# Experimental data taken from PubChem BioAssay AID804 (SRMLSC, 2007).
# This is a selection; strong and weak results do not stand in their true shares. Some of these compounds have results that are not shown, active ones among them. Activity calls are given as the source filed them.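 Rule for the calls: active = inhibition above a set limit, 3 SD over the mean compound inhibition (cut at about 44% in these data); inactive = the rest.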
# Assay: BB579 yeast growth reduction, restrictive medium – S. cerevisiae, yeast lifespan-shortening project, primary screen (AID 804)
# Details: OD615, 48 h, at 10 µM, hits give high values
# How it was run: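 Material: Saccharomyces cerevisiae DeaD strain BB579, replicative lifespan model yeast; buffer or medium: CSMM-D restrictive synthetic medium containing dextrose (glucose); compound: 10 µM single dose, DMSO 0.25%; timing: 48 h compound exposure at 30 °C after 4 h preincubation; signal: turbidity as optical density at 615 nm; benchmarks: positive control amphotericin B 10 µg/mL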
row,Compound,inhibition
1,CC(C)N1C(=O)CC2(CCN(CCOC(=O)C(O)(c3ccccc3)c3ccccc3)CC2)C1=O,inactive: -13.6%
2,CCN1CCCC(OC(=O)C2(O)c3ccccc3C=Cc3ccccc32)C1 (stereo not given),inactive: -1.62%
3,CN(C)C1CCCC1OC(=O)C(O)(c1ccccc1)c1ccccc1 (stereo not given),inactive: -21.1%
4,CN(C)c1cccc(C(=O)NCC2(N(C)C)CCCCC2)c1,inactive: -14.4%
5,O=C(OC1CN2CCC1CC2)C(CO)(c1ccccc1)c1ccccc1 (stereo not given),inactive: -14.7%
